The values that follow come from US20070134286A1, “Methods for reducing intimal hyperplasia, smooth muscle cell proliferation and restenosis in mammals” (priority 2004, published 2007).

Where two headings read alike, the source gives them in different places.

The test system of this assay is human coronary artery smooth muscle cells. Briefly: 3H-thymidine incorporation (DNA synthesis / cell proliferation). It counts as cell-based. The method, then: Thvmidine incorporation: Cells were plated at 1×10^6 cells/ml, 200 μl/well into 96-well plates (Costar 3595—Cole-Parmer Instrument Company, Vernon Hills, Ill.). One day after plating, the cells were treated with test agents for 24 hours and then labeled with 0.3 μCi/well of ^3H-thymidine for another 48 hours. Each well was washed with 0.3 ml/well of PBS, incubated with 0.2 ml/well of ice-cold 10% trichloroacetic acid (hereinafter “TCA”) for 30 minutes at 4° C., and then followed by another wash of 0.2 ml/well of TCA. Samples were dissolved in MICROSCINT™ 20 before counting. Data shown are mean ± the standard deviation (n=4).
Thymidine incorporation: Cells were plated at 1×10^6 cells/ml, 200 μl/well into 96-well plates (Costar). One day after plating, the cells were treated with test agents for 24 hr and then labeled with 0.3 μCi/well of ^3H-thymidine for another 48 hr. Each well was washed with 0.3 ml/well of PBS, incubated with 0.2 ml/well of ice-cold 10% trichloroacetic acid (TCA) for 30 min at 4° C., and then followed by another wash of 0.2 ml/well of TCA. Samples were dissolved in MICROSCINT™ 20 (Packard) before counting.
Background: Dividing cells build labelled thymidine or BrdU into new DNA.

In general, inhibition refers to the drop in the measured response relative to a control, in per cent. High values mean a response far below the control, low ones a response near the control. On to `C=C1/C(=C\C=C2/CCC[C@]3(C)[C@@H]([C@H](C)CCCC(C)(C)O)CC[C@@H]23)C[C@@H](O)C[C@@H]1O` [calcitriol, 1-alpha-25-dihydroxyvitamin D3], for which the EC50 reads like this: (Example 1, CASMC, FIG. 4, read-out: EC50 inhibiting DNA synthesis ([3H]-thymidine incorporation)) 0.111 ± 0.02 nM; (Example 2, FIG. 8, read-out: EC50 inhibition of 3H-thymidine incorporation) 0.11 nM. The molecule further showed an inhibition at 0.01 µM (Example 2, at 10 nM, compared to cells in growth medium) of 46%.
